{"source": "patent US9433573B2", "about": "“Microfabricated nanopore device for sustained release of therapeutic agent” (Delpor, Inc., priority 2001, dated 2016)", "data": [{"substance": "bovine serum albumin [BSA]", "values": [{"measurement": "BSA clearance from blood, second phase", "setting": "NanoGATE implants 7 μg/day or 15 μg/day, days 10 through 50, rats", "result": "slowly cleared"}, {"measurement": "BSA clearance from the blood stream", "setting": "one-time 125 μg bolus, subcutaneous injection, rats", "result": "rapid clearance"}]}]}
